These results are taken from PubChem BioAssay AID1508646 (National Center for Advancing Translational Sciences (NCATS), 2021).

The experiment can be described thus: Cell-based coincidence reporter assay to measure PMP22 gene transcription in S16 Pmp22-F2sN cells - Confirmatory screen. As to conditions: S16 Schwann cells Pmp22-F2sN, dual luciferase, 24 h; at 57.5 µM (top of the series). The source says:
Assay Provider: Jim Inglese Ph.D. National Center for Advancing Translational Science, National Institutes of Health, Rockville, MD CMT is a heterogeneous group of neurological disorders that affect approximately 1 in 2,500 people. In particular, the most common form of CMT, CMT1A is genetically linked to the duplication of the PMP22 gene which leads to Schwann cell overexpression, thus manifesting itself as a typical case of dose-sensitive diseases. […] We can further discriminate the effect of all transcriptionally active molecules on PMP22 translation or stability with an assay that incorporates a short NLuc peptide (HiBiT) at the C-terminus of expressed PMP22 (S16(f8) PMP22-HiBiT) allowing alpha complementation and luminescence detection of membrane-associated PMP22 protein. […] Miniaturization of these assays to 1536-well plate format for quantitative high throughput screening (qHTS) yielded rich data sets immediately from the qHTS assay (S16(c9) Pmp22-F2sN), when compared with data from a cell viability assay (Cell TiterGlo) to identify compounds that decreased the output signals through cellular toxicity to streamline the selection process of actives for subsequent characterization using the HiBiT assay (S16(f8) PMP22-HiBiT). […]
On the technique in general: In a reporter assay the amount or activity of a reporter protein is the signal.

Only a part is listed here, and it is no random draw. Inconclusive results are not listed. Activity calls are given as the source filed them. The calls were made as follows: active = clear falling dose curves in both reporters; inconclusive = both reporters move, but less clearly or upward; inactive = either reporter flat; the % is the FLuc reporter signal.

Take `CC(C)(C)c1ccc(C(=O)NCC2(N3CCOCC3)CCCCC2)cc1`: the activity change, negative = inhibition is inactive: -16.6%.
